The experiment relates to Balb/c male mice given a lethal dose of LPS. To be noted: 15 mg/kg LPS i.p., compound 10 mg/kg intravenously ninety minutes later.

Molecules are shown by their SMILES.

For `CCNC(=O)C[C@@H]1N=C(c2ccc(Cl)cc2)c2cc(OC)ccc2-n2c(C)nnc21` [Example 1, 2-[(4S)-6-(4-Chlorophenyl)-1-methyl-8-(methyloxy)-4H-[1,2,4]triazolo[4,3-a][1,4]benzodiazepin-4-yl]-N-ethylacetamide], the “Animals surviving at 4 days, percent” value is “(52%)”. For the same compound, where the note is “survivors/total”, the “Numbers of animals surviving at 4 days (summed across multiple repeat experiments)” value is on record as 24/56.

The values above are taken from patent US9023842B2, “Benzodiazepine bromodomain inhibitor” (priority 2009, dated 2015).
